# Patent US7674816B2, “Substituted melatonin derivatives, process for their preparation, and methods of use” (Abraxis BioScience, LLC, priority 2003, dated 2010)
# Tested on: rats
# Experiment: In vivo hypnotic activity: time to recovery of righting reflex after tail vein injection
# Conditions: 28 μmol/kg (5 mg/kg for propofol), in DMSO
# Protocol: The suspension was centrifuged at 1000×g for 10 minutes at 4° C. The pellet was washed twice in assay buffer and reacted with radioactive ligand in presence or absence of […] at 10^−4 M final concentration. The amount of radioactivity remained on the Whatman filter following filtration of the reaction mix and two washes with assay buffer was determined using a liquid scintillation counter. Inhibition of radioactive ligand binding by melatonin represents the competitive binding of melatonin to the same site as the radioactive ligand. GABAA Cl channel were assayed using ^3H-TBOB. The binding was carried out in the presence of increasing concentration of melatonin and the KD determined graphically using the Hill plots. In vivo hypnotic activity was determined as follow. Drugs solubilized in DMSO were administered to rats by tail vein injection (N=5 rats per group). A dose level of 28 μmol/kg (5 mg/kg for propofol) was used to compensate for differences in molecular weight of the analogs. Anesthetic activity in vivo was determined as time to recovery of righting reflex following administration of the compounds.
structure (smiles),measurement,value
COc1ccc2[nH]c(-c3ccccc3)c(CCNC(C)=O)c2c1 [drawing 18],"Anesthesia Activity (Time to awakening, min)",2.5 min
